According to patent US20160367705A1, “NANOPARTICLES COMPRISED OF SHELLS ASSOCIATED WITH CHARGED ENTITIES AND FORMED FROM MONOMERS AND METHODS OF MAKING AND USING NANOPARTICLES” (New York University, priority 2015, published 2016):

Assay: Solubility / dispersibility in solvents

Substance	dispersibility in water and non-aqueous media (water, MeOH, DMSO, CHCl3)	solubility in chloroform (chloroform)
Acetamido Cetyl Dimethyl Ammonium Glucuronate [CDA-gluc]	easily dispersed	
cetyltrimethylammonium glucuronate [CTA-gluc, reference compound]		poorly soluble
